## Measured water solubility values of organic chemicals

Water solubility is log10 of mol/L, nominally at 25 °C; higher is more soluble.

Listed for CCC=CCCCCCCCC(=O)OC [9-Dodecenoic acid, methyl ester]: log S -5.31 (log10 mol/L).
Listed for COc1ccc(NC(=O)N(C)C)cc1 [N'-(4-METHOXYPHENYL)-N,N-DIMETHYLUREA]: log S -1.33 (log10 mol/L).
Listed for CC1(C)S[C@@H]2[C@H](N=CN3CCCCCC3)C(=O)N2[C@H]1C(=O)O [Amdinocillin]: log S -2.522 (log10 mol/L).
Listed for CC(CC(=O)[O-])CC(C)(C)C.CC(CC(=O)[O-])CC(C)(C)C.[Zn+2] (configuration not stated) [Zinc bis(3,5,5-trimethylhexanoate)]: log S -2.563 (log10 mol/L).
Listed for N#Cc1ccc2c(c1)COC2=O [1-Oxo-1,3-dihydro-2-benzofuran-5-carbonitrile]: log S -2.248 (log10 mol/L).
Listed for CCCCCCCCCCCC[S+](CC)C(C)CC#N.F[B-](F)(F)F (configuration not stated): log S -1.109 (log10 mol/L).
Listed for CO/N=C1\COc2ccccc21 [(Z)-Benzofuran-3(2H)-one O-methyl oxime]: log S -2.544 (log10 mol/L).
Listed for Nc1ccc(C(=O)NCC(=O)O)cc1 [Aminohippuric acid]: log S -1.174 (log10 mol/L).
Listed for O=C(OCCOC(=O)c1ccccc1)c1ccccc1 [1,2-ETHANEDIOL, DIBENZOATE]: log S -5.07 (log10 mol/L).
Listed for CC1=CCC(C(C)CC=O)CC1 (stereo in doubt): log S -2.796 (log10 mol/L).
Listed for NC(=O)Cc1cccc2ccccc12 [1-Naphthaleneacetamide]: log S -3.36 (log10 mol/L).
Listed for Nc1c(Oc2ccccc2)c(Oc2ccccc2)c(N)c2c1C(=O)c1ccccc1C2=O: log S -8.255 (log10 mol/L).
Listed for O=C[C@H](O)[C@@H](O)[C@H](O[C@H]1O[C@H](CO)[C@@H](O)[C@H](O)[C@H]1O)[C@H](O)CO [Maltose]: log S 0.254 (log10 mol/L).
Listed for Cc1ccc2c(c1)CC[C@H]([C@H]1CO1)O2: log S -2.479 (log10 mol/L).
Listed for CCCCC(CC)COC(=O)C(C#N)=C(c1ccccc1)c1ccccc1 (configuration not stated) [2-Ethylhexyl-2-cyano-3,3-diphenylacrylate]: log S -6.757 (log10 mol/L).
Listed for Nc1cccc2cccc(S(=O)(=O)O)c12 [1-Naphthalenesulfonic acid, 8-amino-]: log S -3.048 (log10 mol/L).
Listed for CCOCOC1CCCCCCCCCCC1 [(Ethoxymethoxy)cyclododecane]: log S -5.335 (log10 mol/L).
Listed for COc1ccc(NC(C)=O)cc1Cl [Acetamide, N-(3-chloro-4-methoxyphenyl)-]: log S -2.2 (log10 mol/L).
Listed for CCCCC(=O)OCC(=O)[C@]1(O)Cc2c(O)c3c(c(O)c2[C@@H](O[C@H]2C[C@H](NC(=O)C(F)(F)F)[C@H](O)[C@H](C)O2)C1)C(=O)c1c(OC)cccc1C3=O [Valrubicin]: log S -4.348 (log10 mol/L).
Listed for C[C@H](CCC(=O)O)[C@H]1CC[C@H]2[C@@H]3C[C@H](O)[C@@H]4C[C@H](O)CC[C@]4(C)[C@H]3CC[C@]12C: log S -3.82 (log10 mol/L).
Listed for CC(C)(C)C(=O)C(Oc1ccc(Cl)cc1)n1ccnc1 (configuration not stated) [Climbazole]: log S -3.703 (log10 mol/L).
Listed for O=C(O)C(F)(F)C(F)(F)C(F)(F)C(F)(F)F [Perfluoropentanoic acid]: log S -3.342 (log10 mol/L).
Listed for CCn1cc(C(=O)O)c(=O)c2cc(F)c(N3CCNCC3)nc21 [Enoxacin]: log S -1.971 (log10 mol/L).
Listed for COc1cc(C#N)ccc1C1C(C(=O)OCCC#N)=C(C)Nc2c(C)cnc(O)c21 (configuration not stated): log S -4.814 (log10 mol/L).
Listed for CC(=O)c1ccc2c(c1)N(CCCN1CCN(CCO)CC1)c1ccccc1S2 [Acetophenazine]: log S -3.836 (log10 mol/L).
Listed for O=C(O)c1ccccc1P(c1ccccc1)c1ccccc1 [Benzoic acid, 2-(diphenylphosphino)-]: log S -5.691 (log10 mol/L).
Listed for COc1ccc(C)cc1C(CC(=O)O)c1ccccc1 (configuration not stated) [3-(2-Methoxy-5-methylphenyl)-3-phenylpropanoic acid]: log S -4.28 (log10 mol/L).
Listed for CC12C=CC(=O)C=C1CCC1C2C(O)CC2(C)C1CC(O)C2(O)C(=O)CO (configuration not stated) [11,16,17,21-Tetrahydroxypregna-1,4-diene-3,20-dione]: log S -2.665 (log10 mol/L).
Listed for CO[Si](C)(OC)C1CCCCC1 [Cyclohexyl(methyl)dimethoxysilane]: log S -3.096 (log10 mol/L).
Listed for CCOC(=O)c1cn(C2CC2)c2cc(F)c(F)cc2c1=O: log S -4.274 (log10 mol/L).
Listed for CCCCCOC(=O)CCC [n-Amyl butyrate]: log S -3.421 (log10 mol/L).
Listed for NC[C@H](O)CC[C@H](N)C(=O)O [L-Hydroxylysine]: log S -0.848 (log10 mol/L).
Listed for Cc1cc(C)c(O)c(C(C)(C)C)c1 [6-tert-Butyl-2,4-xylenol]: log S -3.172 (log10 mol/L).
Listed for CCCCCC[C@@H](O)C/C=C\CCCCCCCC(=O)OC [Methyl ricinoleate]: log S -6.526 (log10 mol/L).
Listed for ONc1ncnc2[nH]cnc12 [N-Hydroxy-9H-purin-6-amine]: log S -2.4 (log10 mol/L).
Listed for Oc1c(Cl)cc(Cl)c2cccnc12 [Chloroxine]: log S -3.191 (log10 mol/L).
Listed for CCCCC(=O)N(Cc1ccc(-c2ccccc2-c2nn[nH]n2)cc1)[C@H](C(=O)OCc1ccccc1)C(C)C [Valsartan benzyl ester]: log S -5.766 (log10 mol/L).
Listed for O=S(=O)([O-])[O-].[NH3+]c1nc(NC2CC2)c2ncn(C3C=CC(CO)C3)c2n1.[NH3+]c1nc(NC2CC2)c2ncn(C3C=CC(CO)C3)c2n1 (configuration not stated) [Abacavir sulfate]: log S -0.94 (log10 mol/L).
Listed for O=C1c2ccccc2C2=Nc3cccc4cccc(c34)N12 [12H-Phthaloperin-12-one]: log S -6.806 (log10 mol/L).
Listed for CCOC(=O)/C(=C\c1cccc(Cl)c1)N=CO [Ethyl 2-formamido (3-chlorophenyl) acrylate]: log S -3.11 (log10 mol/L).
Listed for CC(=O)COc1c(C)cccc1C [1-(2,6-Dimethylphenoxy)acetone]: log S -1.919 (log10 mol/L).
Listed for CC(C/N=C/c1ccccc1O)/N=C/c1ccccc1O (stereo partly drawn) [N,N'-Disalicylidene-1,2-diaminopropane]: log S -3.172 (log10 mol/L).
Listed for CCOC(=O)OC1CCCCC1C(C)(C)C (configuration not stated) [2-tert-Butylcyclohexyl ethyl carbonate]: log S -4.321 (log10 mol/L).
Listed for N#C/C(=C\c1cccc(Cl)c1F)c1ccc(Cl)cc1F: log S -7.191 (log10 mol/L).
Listed for O=C(O)CCCc1ccccc1 [4-Phenylbutyric acid]: log S -0.96 (log10 mol/L).
Listed for Cc1nc(C)c2c(n1)N(Cc1ccc(-c3ccccc3-c3nn[nH]n3)cc1)C(=O)CC2 [Tasosartan]: log S -4.102 (log10 mol/L).
Listed for CCCCC(=O)OCC(=O)[C@H]1[C@H](C)C[C@H]2[C@@H]3C[C@H](F)C4=CC(=O)C=C[C@]4(C)[C@H]3[C@@H](O)C[C@@]21C: log S -6.487 (log10 mol/L).
Listed for O=C(O)C(F)(F)C(F)(F)C(F)(F)C(F)(F)C(F)(F)C(F)(F)C(F)(F)C(F)(F)C(F)(F)C(F)(F)C(F)(F)C(F)(F)C(F)(F)C(F)(F)C(F)(F)F [Perfluorohexadecanoic acid]: log S -6.726 (log10 mol/L).
Listed for CC(C)c1ccc(C=O)cc1 [4-Isopropylbenzaldehyde]: log S -2.478 (log10 mol/L).
Listed for NC(=O)Nc1ncnc2nc[nH]c12 [N-7H-Purin-6-ylurea]: log S -2.754 (log10 mol/L).
Listed for FC(F)(F)C(F)(F)C(F)(F)C(F)(F)C(F)(F)C(F)(F)CCS [2-(Perfluorohexyl)ethanethiol]: log S -6.91 (log10 mol/L).
Listed for CC(=O)Nc1cccc([N+](=O)[O-])c1 [Acetamide, N-(3-nitrophenyl)-]: log S -2.17 (log10 mol/L).
Listed for CC(C)CC(=O)OCc1ccccc1 [Benzyl 3-methylbutanoate]: log S -2.907 (log10 mol/L).

Excerpt, the final 7 entries:

CCCCC(=O)OCC(=O)[C@H]1[C@H](C)C[C@H]2[C@@H]3C[C@H](F)C4=CC(=O)C=C[C@]4(C)[C@H]3[C@@H](O)C[C@@]21C is reported with log S -6.487 (log10 mol/L).
O=C(O)C(F)(F)C(F)(F)C(F)(F)C(F)(F)C(F)(F)C(F)(F)C(F)(F)C(F)(F)C(F)(F)C(F)(F)C(F)(F)C(F)(F)C(F)(F)C(F)(F)C(F)(F)F [Perfluorohexadecanoic acid] is reported with log S -6.726 (log10 mol/L).
CC(C)c1ccc(C=O)cc1 [4-Isopropylbenzaldehyde] is reported with log S -2.478 (log10 mol/L).
NC(=O)Nc1ncnc2nc[nH]c12 [N-7H-Purin-6-ylurea] is reported with log S -2.754 (log10 mol/L).
FC(F)(F)C(F)(F)C(F)(F)C(F)(F)C(F)(F)C(F)(F)CCS [2-(Perfluorohexyl)ethanethiol] is reported with log S -6.91 (log10 mol/L).
CC(=O)Nc1cccc([N+](=O)[O-])c1 [Acetamide, N-(3-nitrophenyl)-] is reported with log S -2.17 (log10 mol/L).
CC(C)CC(=O)OCc1ccccc1 [Benzyl 3-methylbutanoate] is reported with log S -2.907 (log10 mol/L).

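These are experimental values that the OPERA curators gathered from public databases to train and test their QSAR models. A listed value is a point estimate from one report or more. Method and conditions are not stated for these values. The measured form (salt, isomer or mixture) is not always the one drawn. Some entries may be limits or estimates that an upstream database listed as plain numbers.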

Data: OPERA 2.9 data sets, kmansouri/OPERA on GitHub.